Each compound was assayed against intermediate conductance, calcium activated potassium channel (Gardos channel) in red blood cells (Homo sapiens, UniProt O15554) (assay: 86Rb flux assay for inhibition of the Gardos channel in red blood cells (Example 4)). Conditions: CaCl2 and A23187.
Experimental: Activities for selected compounds of the invention were determined using the assay set forth in Example 4, and are presented in Table 1.
Example 4 illustrates the use of a rubidium flux assay to determine the activity of the compounds of the invention.
Example 4 describes a bioassay for measuring the inhibition of a calcium activated potassium channel, the Gardos channel, in red blood cells by the compounds of the invention.
Heparinized whole blood was washed three times with Modified Flux Buffer (MFB: 140 mM NaCl; 5 mM KCl; 10 mM Tris; 0.1 mM EGTA; pH=7.4). Red blood cells (“RBCs”) at an approximate 10% hematocrit. Washed cells were then incubated for 3 hours with ^86Rb (5 μCi/mL). After this incubation period, the RBCs were washed three times with cold MFB. Washed ^86Rb loaded RBCs were then incubated with a test compound of the invention for 10 minutes. ^86Rb flux was then initiated by the addition of 10 μL/mL of a MFB solution containing 10 mM CaCl2 and 100 μM A23187, a calcium ionophore. This yielded a final concentration of 100 μM CaCl2 and […] A23187 n the incubation medium. Cells were incubated for 10 minutes, spun down and the supernatant was removed. Samples were counted in a Wallace Microbeta liquid scintillation counter by Cerenkov emission. Total RBC ^86Rb content was determined by lysing the RBCs with water and then precipitating protein using a 50:50 mixture of ethanol:chloroform. After a 20 minute microfuge spin, the aqueous and organic layers separated and the aqueous layer was removed and counted. Efflux is expressed as a percentage of the initial cell content of ^86Rb.

Sequences of proteins named here, by UniProt entry; tags and fusion partners are left off.
UniProt O15554, whole entry: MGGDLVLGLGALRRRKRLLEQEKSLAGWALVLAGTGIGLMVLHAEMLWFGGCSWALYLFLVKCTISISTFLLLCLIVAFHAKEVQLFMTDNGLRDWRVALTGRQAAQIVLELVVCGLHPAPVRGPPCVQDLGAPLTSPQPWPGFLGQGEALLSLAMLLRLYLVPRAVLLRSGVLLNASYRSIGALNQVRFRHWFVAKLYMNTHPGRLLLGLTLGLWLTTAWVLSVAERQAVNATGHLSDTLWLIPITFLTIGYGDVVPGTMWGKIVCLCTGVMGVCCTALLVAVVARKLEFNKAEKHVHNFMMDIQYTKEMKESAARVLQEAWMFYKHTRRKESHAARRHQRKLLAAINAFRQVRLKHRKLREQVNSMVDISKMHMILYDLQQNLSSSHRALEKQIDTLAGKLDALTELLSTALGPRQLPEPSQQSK

Row | Compound | Activity (relative potencies in the intermediate conductance, calcium activated potassium channel blocker assay, IC50 class)
1 | O=S(=O)(Nc1ccccc1-c1nnco1)c1cccc(C(F)(F)F)c1 | ++ (++ represents 2 μM < IC50 < 0.5 μM)
2 | COC(=O)c1cc(Cl)ccc1NS(=O)(=O)c1ccc(Cl)c(Cl)c1 | + (+ Represents 10 μM < IC50 < 2 μM)

Other lines, results leading:

Row | Activity (relative potencies in the intermediate conductance, calcium activated potassium channel blocker assay, IC50 class) | Compound
3 | ++ (++ represents 2 μM < IC50 < 0.5 μM) | CN(C)c1ccc(NS(=O)(=O)c2cccc(C(F)(F)F)c2)c(-c2ncco2)c1
4 | ++ (++ represents 2 μM < IC50 < 0.5 μM) | COC(=O)c1cc(Cl)ccc1NS(=O)(=O)c1cccc(C(F)(F)F)c1
5 | + (+ Represents 10 μM < IC50 < 2 μM) | COC(=O)c1sccc1NS(=O)(=O)c1ccc(C(F)(F)F)cc1
6 | ++ (++ represents 2 μM < IC50 < 0.5 μM) | CCOc1ccc(NS(=O)(=O)c2cccc(C(F)(F)F)c2)c(-c2ncco2)c1

Same assay, conditions: read-out: Activity (relative potencies in the intermediate conductance, calcium activated potassium channel blocker assay, IC50 class), CaCl2 and A23187

Row | IC50 [nM] | Compound
7 | < 500 | CCOC(=O)c1ccccc1NS(=O)(=O)c1cccc(C(F)(F)F)c1
8 | < 500 | COc1cc(NS(=O)(=O)c2cccc(C(F)(F)F)c2)c(-c2ncco2)cc1OC
9 | < 500 | O=S(=O)(Nc1ccccc1C1=NCCO1)c1cccc(C(F)(F)F)c1
